# Assay results: ChEMBL document CHEMBL2346595, “β-Secretase (BACE1) inhibitors with high in vivo efficacy suitable for clinical evaluation in Alzheimer's disease” (J Med Chem, 2013)
# Organism: Homo sapiens
# Test: Selectivity ratio of IC50 for human BACE2 to IC50 for human BACE1
row,Compound,Ratio IC50
1,CC#CCOc1cnc(C(=O)Nc2ccc(F)c([C@@]3(C)N=C(N)OCC3(F)F)c2)cn1,17
2,COc1cnc(C(=O)Nc2ccc(F)c([C@@]3(C)N=C(N)OCC3(F)F)c2)cn1,4
3,C[C@]1(c2cc(NC(=O)c3nn(C(F)F)cc3Cl)ccc2F)N=C(N)OCC1(F)F,0.6
